Test results: patent US20260382562A1, “ALLOSTERIC CHROMENONE INHIBITORS OF PHOSPHOINOSITIDE 3-KINASE (PI3K) FOR THE TREATMENT OF DISEASE” (published 2026)
“And” between values parts separate entries of the source, which are not always exact repeats. Identical values can stand only once.

Experiments:
[1] = system: T-47D ER-positive, PI3Ka H1047R−/+ breast cancer xenograft; assay: In Vivo Combination Study in ER-Positive T-47D breast cancer xenograft in mice, everolimus/fulvestrant (Example 17); settings: 28 days, as estimated in the model of each combination, Compound A 37.5 mg/kg BID p.o., everolimus 5 mg/kg QD p.o., fulvestrant 5 mg/animal Q7D i.v.
[2] = system: CAL-148, PI3Ka H1047R & D350N+/−, triple negative breast cancer xenograft; assay: In Vivo Combination Study in CAL148 TNBC tumor model in mice (Example 16); settings: 14 days
[3] = system: T47D abemaciclib/fulvestrant resistant cells; assay: In Vitro Cell Proliferation Assay, T47D abemaciclib/fulvestrant resistant; settings: read-out: absolute IC50 (cell proliferation), FBS adjusted, n = 4, 2 cell doubling times
[4] = system: CTG-1260 PIK3CA H1047R/D350G+/− ESR1 D538G+/− breast cancer PDX; assay: In Vivo Tumor Growth Inhibition Study in ER+HER2 ESR1 D538G+/− breast cancer PDX (CTG-1260) in mice (Example 15); settings: 56 days, as estimated in the model of each combination; for Mean Tumor Volume (single agent): Compound A 75 mg/kg BID p.o., abemaciclib 50 mg/kg QD p.o., imlunestrant 5 mg/kg QD p.o., fulvestrant 5 mg/animal Q7D i.v.; for Percent Response (D[T/C] % or Reg %), single agent: Compound A 75 mg/kg BID, abemaciclib 50 mg/kg QD, imlunestrant 5 mg/kg QD, fulvestrant 5 mg/animal Q7D, negative = regression
[5] = system: T47D Parental cells; assay: In Vitro Cell Proliferation Assay, T47D Parental; settings: read-out: absolute IC50 (cell proliferation), FBS adjusted, n = 4, 2 cell doubling times
[6] = system: HR+/HER2− PIK3CA-mutant advanced or metastatic breast cancer patients; settings: cited from earlier work
[7] = system: T47D ESR1 E538+/− cells; assay: In Vitro Cell Proliferation Assay, T47D ESR1 E538+/−; settings: read-out: absolute IC50 (cell proliferation), FBS adjusted, n = 4, 2 cell doubling times
[8] = system: T-47D ER-positive, PI3Ka H1047R−/+ breast cancer xenograft; assay: In Vivo Combination Study in ER-Positive T-47D breast cancer xenograft in mice (Example 14); settings: 28 days, as estimated in the model of each combination; for Mean Tumor Volume (single agent): Compound A 37.5 mg/kg BID p.o., abemaciclib 50 mg/kg QD p.o., imlunestrant 5 mg/kg QD p.o., fulvestrant 5 mg/animal Q7D i.v.; for Percent Response (D[T/C] % or Reg %), single agent: Compound A 37.5 mg/kg BID, abemaciclib 50 mg/kg QD, imlunestrant 5 mg/kg QD, fulvestrant 5 mg/animal Q7D, negative = regression
[9] = system: T47D abemaciclib resistant cells; assay: In Vitro Cell Proliferation Assay, T47D abemaciclib resistant; settings: read-out: absolute IC50 (cell proliferation), FBS adjusted, n = 4, 2 cell doubling times
[10] = system: T47D ESR1 D538+/+ cells; assay: In Vitro Cell Proliferation Assay, T47D ESR1 D538+/+; settings: read-out: absolute IC50 (cell proliferation), FBS adjusted, n = 4, 2 cell doubling times
[11] = system: wild-type (WT) and mutated PI3Kα; settings: WT vs mutated PI3Kα; cited from earlier work
[12] = system: patients with heavily pretreated, ER+HER2− advanced breast cancer; settings: Phase 1, monotherapy; cited from earlier work
[13] = physical stability of Tromethamine Salt Form D (VT-XRPD); settings: RT
[14] = particle size analysis (D90 Measurements); settings: pin milled

SMILES	Mean Tumor Volume (single agent) [1] [mm^3]	IC50 [3] [nM]	Mean Tumor Volume (single agent) [4] [mm^3]	Percent Response (D[T/C] % or Reg %), single agent [4]	IC50 [5] [nM]	IC50 [7] [nM]	Mean Tumor Volume (single agent) [8] [mm^3]	Percent Response (D[T/C] % or Reg %), single agent [8]	IC50 [9] [nM]	IC50 [10] [nM]	also measured
CO[C@H]1C[C@@H]2CC[C@@H](C)[C@@](O)(O2)C(=O)C(=O)N2CCCC[C@H]2C(=O)O[C@H]([C@H](C)C[C@@H]2CC[C@@H](OCCO)[C@H](OC)C2)CC(=O)[C@H](C)/C=C(\C)[C@@H](O)[C@@H](OC)C(=O)[C@H](C)C[C@H](C)/C=C/C=C/C=C/1C	408.0										
CC(=O)O[C@H]1C(=O)[C@@]2(C)[C@H]([C@H](OC(=O)c3ccccc3)[C@]3(O)C[C@H](OC(=O)[C@H](O)[C@@H](NC(=O)c4ccccc4)c4ccccc4)C(C)=C1C3(C)C)[C@]1(OC(C)=O)CO[C@@H]1C[C@@H]2O											Mean Tumor Volume (single agent) ([2]; paclitaxel 10 mg/kg QW i.v.): 1847.9 mm^3; Percent Response (D[T/C] % or Reg %), single agent ([2]; paclitaxel 10 mg/kg QW i.v.): 67.6%; Mean Tumor Volume (single agent) ([2]; paclitaxel 15 mg/kg QW i.v.): 1187.8 mm^3; Mean Tumor Volume (single agent) ([2]; paclitaxel 20 mg/kg QW i.v.): 1119.0 mm^3
C[C@]12CC[C@@H]3c4ccc(O)cc4C[C@@H](CCCCCCCCC[S+]([O-])CCCC(F)(F)C(F)(F)F)[C@H]3[C@@H]1CC[C@@H]2O (stereo partly shown)	411.8	32.1	671.0	37.8% and 36.1% and 38.4%	0.02	0.03	413.3	26.6% and 27.9% and 27.1%	19.4	0.08	progression-free survival ([6]; Phase 3, SOLAR-1): 5.7 months; adverse event: decreased appetite ([6]; participants, SOLAR-1): 10.5%; adverse event: diarrhea ([6]; participants, SOLAR-1): 15.7%; adverse event: hyperglycemia ([6]; participants, SOLAR-1): 9.8%; adverse event: nausea ([6]; participants, SOLAR-1): 22.3%; adverse event: rash ([6]; participants, SOLAR-1): 5.9%
Cc1nc(NC(=O)N2CCC[C@H]2C(N)=O)sc1-c1ccnc(C(C)(C)C(F)(F)F)c1											relative potency on WT and mutated PI3Kα (in words) [11]: approximately equal potency; most frequent AEs leading to discontinuation ([6]; SOLAR-1): hyperglycemia and rash; participants who discontinued due to AEs ([6]; SOLAR-1): 25.0%
Oc1ccc2c3c(cnc2c1)-c1ccc(C(F)(F)F)cc1O[C@@H]3c1ccc(OCCN2CC(CF)C2)cc1		31.2	384.8	11.8% and 12.9% and 12.6%	0.16	0.4	370.9	17.2% and 19.5% and 17.7%	31	0.46	anti-tumor activity (in words) [12]: encouraging anti-tumor activity; safety profile (in words) [12]: favorable safety profile
Cc1cc([C@@H](C)Nc2ccccc2C(=O)O)c2oc(-c3ccccc3)c(C)c(=O)c2c1											physical stability (conversion to Form A) [13]: conversion to Form A occurs within minutes at RT; D90 Measure ([14]; Material Lot A): 18 micrometers; D90 Measure ([14]; Material Lot B): 19 micrometers; D90 Measure ([14]; Material Lot C): 19 micrometers; D90 Measure ([14]; Material Lot D): 22 micrometers
